Columns and labels:
A2780 = experiment: SRB cytotoxicity / proliferation assay, A2780 cells; conditions: 72 h
HT-29 = format: cell-based; conditions: HT29 cells; MPL 5 μM; 5-FU 20 μM, gemcitabine 0.5 μM, oxaliplatin 1 μM; 72 h; FIG. 27
Method: All cell lines described herein were purchased from ATCC. […] Control cultures were treated with ethanol alone.

HOSE = experiment: SRB cytotoxicity assay, HOSE non-malignant control cells; conditions: 72 h, concentrations as stated in the figure

SMILES: CC(C)C[C@H](NC(=O)[C@H](Cc1ccccc1)NC(=O)c1cnccn1)B(O)O [Bortezomib]
- Synergistic cytotoxicity between MPL and combined drug (A2780; A2780 Ovarian, 5 μM MPL + drug, Table 7): ✓^2

SMILES: O=c1[nH]cc(F)c(=O)[nH]1 [Fluorouracil]
- Interaction of the drug(s) with MPL (synergy), in words (HT-29): synergistic cytotoxicity

SMILES: O=C1[O][Pt]2([NH][C@@H]3CCCC[C@H]3[NH]2)[O]C1=O [Oxaliplatin]
- Interaction of the drug with MPL (synergy), in words (HOSE): relatively small yet synergistic interaction

SMILES: CO[C@@]12[C@H](COC(N)=O)C3=C(C(=O)C(C)=C(N)C3=O)N1C[C@@H]1N[C@@H]12 [mitomycin C]
- Interaction of the drug with MPL (synergy), in words (A2780; A2780 cells, concentrations as stated at the place or in the figure): effective enhancement

Source: US9833431B2, “Pharmaceutical combinations for the treatment of cancer” (Pitney Pharmaceuticals Pty Limited, priority 2013, dated 2017)
